Screens as filed in PubChem.
GIV Gai3 FP: blocks GIV peptide binding to rat Galpha-i3. P08753. Galpha-i3/FITC-GIV peptide fluorescence polarization, 90 min; stronger effect = lower value; scaled: aluminum fluoride 0%, vehicle 100%. percent of control (FP), % (test concentration not listed). 0.42% of 210,000 active. AID 1224905;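 active = replicate mean at 85% of control or lower, very high polarization wells dropped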;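 also: wells of about 15 µL received 100 nL stock; the first replicate is given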
GIV-Gai FP conf: inhibitors of GIV peptide binding to Galpha-i3, confirmation, biochemical, fluorescence polarization, FITC-GIV peptide, rat Galphai3. shares compounds with GIV Gai3 FP. hits give low values. fluorescence polarization, mP at 100 µM. 38% of 580 active. AID 1259350, 2017;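 active = inhibition score of 15 or more, meaning 100 minus mean polarization as percent of control over three replicates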;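 note: lower mP means peptide displaced from Galphai3 so more inhibition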
GIV Gai AS conf: inhibitors of GIV binding to Galpha-i3, confirmation, orthogonal assay for GIV-Galpha-i inhibitor project, biochemical, AlphaScreen, His-GIV, GST-Galphai3 | shares compounds with GIV Gai3 FP | purified proteins, 90 min; hits give low values | AlphaScreen counts at 100 µM | 39% of 580 active;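 active = inhibition score at or above a set limit, where the score is 100 minus the three-replicate mean percent of control signal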
Numbers stand for hits; i = inactive. Shown is part of a subset that was picked to be rich in hits.

SMILES	GIV Gai3 FP	others
Cc1[nH]c2ccc(O)cc2c1CCN	i
COc1cc(CNCCc2ccccc2)cc(OC)c1	i
CCCCc1ncc(CNCCc2c(C)[nH]c3ccc(OC)cc23)[nH]1	20.6
COc1ccccc1N1C(=O)CC(=O)NC1=S	i
COc1ccc(NC(=O)CCc2nc(C3=CCN(Cc4ccc(Cl)cc4)CC3)no2)cc1Cl	i
Cc1ccccc1-n1c(/C=C/c2c(C)[nH]c3ccccc23)nc2ccccc2c1=O	i
Cc1[nH]c2ccccc2c1/C=C/c1nc2ccccc2c(=O)n1-c1ccccc1	-70.0
O=c1c2ccccc2nc(/C=C/c2c[nH]c3ccccc23)n1-c1ccccc1	i
C=CCN1C(=O)/C(=C\c2ccc(OC)cc2)C(=O)NC1=S	i
CN1C(=O)NC(=O)/C(=C\C=C\c2ccco2)C1=O	i
CN1/C(=C\C=C2C(=O)NC(=O)NC2=O)C(C)(C)c2ccccc21	29.0
Cc1[nH]nc2c1C(c1ccc(O)cc1)SCC(=O)N2 (centres undefined)	i
CCCC1=C(C(=O)OCC)C2(C(=O)Nc3ccccc32)C(C(=O)OC(C)(C)C)=C(N)O1 (centres undefined)	i
N#CC1=C(N)Oc2c(c(=O)oc3ccccc23)C1c1ccc(Br)s1 (centres undefined)	i
CCN(CC)C(=O)c1ccc(NC(=O)c2ccccc2)cc1	i
COc1c(Cl)cc(Cl)cc1-c1c(C#N)c(N)n2c(nc3ccccc32)c1C#N	i
Cc1c(C#N)c2nc3ccccc3n2c(=O)/c1=C\Nc1ccc(N2CCOCC2)c(Cl)c1	56.7
Cc1cc(Nc2ccc(N3CCCC3)cc2)n2c(nc3ccccc32)c1C#N	i
CC12CC[C@H]3[C@@H](CCC4(O)C[C@H](O)CCC34/C=N/NC(=O)c3ccc(Br)cc3)C1(O)CCC2C1=CC(=O)OC1 (some centres undefined)	i
O=c1cccc2n1CC1CC2CN(CC(O)COc2ccccc2)C1 (centres undefined)	i
Cc1nc(S(=O)(=O)N2CCCCC2c2cccnc2)cn1C (centres undefined)	84.8	GIV-Gai FP conf=i;GIV Gai AS conf=i
NC(=O)CCN1CCCCC1c1cccnc1 (centres undefined)	i
Nc1ccc(S(=O)(=O)N2CCCCC2c2cccnc2)cc1 (centres undefined)	i
Cc1cc(Br)ccc1NC(=O)c1cccn(Cc2cccc(F)c2)c1=O	i
Cc1cc(C)cc(N2C(=O)/C(=C/c3ccc(OC(C)C(=O)O)cc3)C(=O)NC2=S)c1 (centres undefined)	i
SMILES	GIV Gai3 FP	others
CCc1ccc(-n2c(N3CCCC3)nc3ccccc3c2=O)cc1	i
CCNC1(c2nnnn2-c2cccc(Cl)c2)CCC(C)CC1 (centres undefined)	i
CCc1ccc(N2C(=O)/C(=C/c3ccc(OCC(=O)O)c(Br)c3)C(=O)NC2=S)cc1	57.4	GIV-Gai FP conf=34.4;GIV Gai AS conf=3342
C=CCN1C(=O)NC(=O)/C(=C/c2ccc(OCC(=O)O)c(OCC)c2)C1=O	i
O=C1NC(=O)C(=Cc2ccc(OCc3ccc(C(=O)O)cc3)c(Br)c2)C(=O)N1	i
CN1C(=O)N(C)C(=O)C(Cc2ccccn2)(Cc2ccccn2)C1=O	i
CN(C)C(=O)Oc1ccc(C2SCCS2)cc1	i
CCN(CC)S(=O)(=O)c1cc(C(=O)Oc2cccc3cccnc23)ccc1Br	i
CCS(=O)(=O)Nc1cccc(C(=C2CCCCC2)c2cnc[nH]2)c1	i	GIV-Gai FP conf=i;GIV Gai AS conf=6784
COc1ccc2c(c1)C1(CCN(S(=O)(=O)c3ccc(OC)c(OC)c3)C1)C(=O)N2 (centres undefined)	i
COc1ccc2c(c1)C1(CCN(C(=O)CC(C)(C)C)C1)C(=O)N2 (centres undefined)	i
NC(=O)CS(=O)(=O)C(c1ccccc1)c1ccccc1	i
CN(C)c1ccc(C=C2C(=O)NC(=S)NC2=O)cc1	i
O=C1NC(=O)C(=Cc2ccccc2)C(=O)N1	28.9	GIV-Gai FP conf=31.6;GIV Gai AS conf=27826
O=C1NC(=S)NC(=O)C1=Cc1ccncc1	i
O=C1NC(=O)C(=Cc2ccc(N3CCOCC3)cc2)C(=O)N1	i
O=C1NC(=O)N(c2ccccc2)C(=O)/C1=C/c1ccccc1	i
CC(C)c1ccc(C=C2C(=O)NC(=O)NC2=O)cc1	32.3	GIV-Gai FP conf=28;GIV Gai AS conf=i
O=C(COc1ccccc1Cl)N(c1ccccc1Cl)C1CN2CCC1CC2 (centres undefined)	i
Cc1cc(/C=C2\C(=O)NC(=S)N(c3cccc(Cl)c3)C2=O)c(C)n1-c1cc(C(=O)O)cc(C(=O)O)c1	i
COc1cc(C2C(C#N)=C(N)Oc3c2c(=O)oc2ccccc32)ccc1OC(=O)c1cccs1 (centres undefined)	i
CN1CC=C(c2noc(CCC(=O)NCCN3CCN(c4cccc(Cl)c4)CC3)n2)CC1	i
O=C(c1ccccc1)c1cc(Cl)cc2c1NC(c1ccc(Br)cc1)C1CC(Sc3ccccc3[N+](=O)[O-])C(Cl)C21 (centres undefined)	i
CC(C)N1CCC2(CC1)NC(=O)c1ccccc1O2	i
Cc1cc(C)c2oc(-c3ccc(N/C=c4\c(C)c(C#N)c5nc6ccccc6n5c4=O)cc3)nc2c1	72.6	GIV-Gai FP conf=i;GIV Gai AS conf=i
SMILES	GIV Gai3 FP	others
Cc1ccc2nc(NC(=O)c3cccn(Cc4ccc(Br)cc4)c3=O)sc2c1	i
O=C(Nc1ccc(Cl)cc1C(=O)c1ccccc1)c1cc2cc([N+](=O)[O-])ccc2s1	i
CN1C(=O)C(=C/C=C/c2ccccc2)C(=O)N(C)C1=O	80.9	GIV-Gai FP conf=i;GIV Gai AS conf=6725
C=CCN1C(=O)NC(=O)/C(=C/C=C/c2ccccc2)C1=O	i
CN1C(=O)C(=Cc2ccc(O)cc2)C(=O)N(C)C1=O	i
c1ccc(C2CCCNC2)cc1 (centres undefined)	i
O=[N+]([O-])C12CN3CN(C1)CC([N+](=O)[O-])(C3)C2	i
COCCNC(=O)CN1CC=C(c2noc(C3CCC3)n2)CC1	i
CN1C2C=C(N(C(=O)c3ccccc3)c3ccccc3)CC1CC2 (centres undefined)	i
CCCCCCC1C(=O)NC(=S)N(c2ccccc2)C1=O (centres undefined)	i
CCN(CC)C(=O)c1ccc(NC(=O)Cn2nc(-c3ccccc3)c3ccccc3c2=O)cc1	i
CCn1nc(-c2ccccc2)nc2c(=O)n(C)c(=O)nc1-2	18.6	GIV-Gai FP conf=16.3;GIV Gai AS conf=i
CCn1nc(-c2cccnc2)nc2c(=O)n(C)c(=O)nc1-2	46.0	GIV-Gai FP conf=39.5;GIV Gai AS conf=i
COc1ccc2c(C(O)CN3CCC(C)CC3)c[nH]c2c1 (centres undefined)	i
CCN1CCN(Cc2ccc(NC(=O)CCc3nc(C4=CCN(C)CC4)no3)cc2)CC1	i
CN1CCC2(CC1)CC(=O)c1ccccc1O2	i
Clc1ccc(C2NCCc3[nH]cnc32)c(Cl)c1 (centres undefined)	i
CC1(C)COP(=S)(C(Nc2ccccc2)c2ccccc2)OC1 (centres undefined)	i
CC(c1ccccc1F)n1cc(C(=O)NC2CCCC2)nn1 (centres undefined)	i
